In PubChem BioAssay AID488899 (Broad Institute, 2010):
This is a selection; strong and weak results do not stand in their true shares. Calls of active or inactive are those of the source.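 The calls were made as follows: active = mean inhibition across replicates of 60% or more, whatever share of single replicates reaches that level; inconclusive = some that reach 60%, reason not given; inactive = mean inhibition across replicates below 60%.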

Experiment: MITF transcriptional activity suppression – cell-based, SK-MEL-5, single point, luciferase, primary screen (AID 488899)
Details: SK-MEL-5 TRPM1 promoter luciferase, 24 h; at 12.5 µM; hits give high values

Compound | inhibition
O=P1(Nc2ncccn2)COc2ccccc2OC1 | inactive: -2.86%
O=P1(Nc2ccc(Br)cn2)COc2ccccc2OC1 | inactive: 14.6%
Cc1ccc(OCC(=O)OC2CN3CCC2CC3)cc1 (stereo not given) | inactive: -4.55%
O=[As](O)(c1cccs1)c1cccs1 | inactive: 12.5%
Nc1cccc([As](=O)(O)c2ccccc2)c1 | inactive: -7.23%
Cc1nn(-c2ccccc2)c2c1P(=O)(N1CCOCC1)N(C)C(c1ccccc1)=N2 (stereo not given) | inactive: 0.019%
CC1CCC(C(C)C)C(OP(=O)(Nc2ccccn2)c2ccccc2)C1 (stereo not given) | inactive: 1.58%
Cc1ccc(C(=O)OC2CN3CCC2CC3)cc1 (stereo not given) | inactive: 1.1%
O=C(/C=C/c1ccccc1)OC1CN2CCC1CC2 (stereo not given) | inactive: -9.95%
CCCC1OP(=O)(Nc2ccccc2)OCC1CC (stereo not given) | inactive: -17.4%
CN(C)C1(CNC(=O)c2ccc(S(C)(=O)=O)cc2)CCCCC1 | inactive: 7.77%
COc1ccccc1CNC(=O)COC(=O)C(O)(c1ccccc1)c1ccccc1 | inactive: -0.486%
CC1(CBr)Cn2c(nc3ccccc3c2=O)S1 (stereo not given) | inactive: -3.38%
CC(C)/C=N\N=C(\N)N[N+](=O)[O-] | inactive: 7%
CN(C(=O)Cc1ccc(Cl)c(Cl)c1)[C@@H]1CCCC[C@H]1N1CCCC1 | inactive: -8.03%
CCOP(=O)(Nc1ccc(C)cn1)OCC | inactive: 12.8%
O=P1(Nc2ccccn2)COc2ccccc2OC1 | inactive: 3.92%
CCC1=CC2Cc3nc4ccc(Cl)cc4c(N)c3C(C1)C2 (stereo not given) | inactive: -9.42%
CCOP(=O)(NC(=NC(C)c1ccccc1)NC(C)c1ccccc1)OCC (stereo not given) | inactive: 2.3%
Clc1n[nH]nc1-c1nn[nH][15n]1 | inactive: -5.08%
CC(C)(C)C(=O)NC(Sc1ncccn1)C(Cl)(Cl)Cl (stereo not given) | inactive: 23.6%
CCCOP(=S)(Nc1nc(N)cc(=O)[nH]1)OCCC | inactive: 4.84%
Cc1ccc(NCCc2c([N+](=O)[O-])cc([N+](=O)[O-])cc2[N+](=O)[O-])cc1 | inactive: 8.3%
Nc1cccc2c([As](=O)(O)O)cccc12 | inactive: -21.5%
COc1cc(C2NCCC3(OCCO3)C2(C)C)cc(OC)c1OC (stereo not given) | inactive: -1.87%

Compound | inhibition
CCOP(=O)(Nc1cccc2ccccc12)OCC | inactive: 7.55%
COc1cc(C(=O)NCC2(N3CCOCC3)CCCCC2)cc(Cl)c1OC(C)C | inactive: 13.9%
O=[As](O)(O)c1cccnc1 | inactive: 9.1%
CS(=O)(=O)c1ccc(Cl)c(NC(=O)COC(=O)C(O)(c2ccccc2)c2ccccc2)c1 | inactive: 6.3%
O=C(OC1CN2CCC1CC2)c1ccc(Cl)cc1 (stereo not given) | inactive: -0.148%
O=[As](O)(c1cccc(O)c1)c1cccc(O)c1 | inactive: 5.11%
Cc1cccc(OCC(=O)OC2CN3CCC2CC3)c1 (stereo not given) | inactive: 4.8%
NC(=O)Nc1ccc([As](=O)(O)O)cc1 | inactive: 2.31%
CN(C)C(=O)c1cc([N+](=O)[O-])cc2c1-c1c(cc([N+](=O)[O-])cc1[N+](=O)[O-])C2=O | active: 70.9%
O=[N+]([O-])c1ccc2c(c1)nnn2O | inactive: 8.48%
CN(C(=O)Cc1ccc(Cl)c(Cl)c1)[C@H]1CC[C@@]2(CCCO2)C[C@@H]1N1CCCC1 | inactive: -9.42%
N#CCCN(C(=O)COC(=O)C(O)(c1ccccc1)c1ccccc1)c1ccc(F)cc1 | inactive: 3.43%
CCOP1(=S)c2c(C)nn(CCC#N)c2N=C(c2ccc(F)cc2)N1C (stereo not given) | inactive: 9.45%
CN(C(=O)Cc1ccccc1)[C@@H]1CC[C@]2(CCCO2)C[C@H]1N1CCCC1 | inactive: -14.1%
CS(=O)(=O)c1cc([N+](=O)[O-])c2no[n+]([O-])c2c1 | inactive: 11.9%
CCOP1(=S)c2c(C)nn(CCC#N)c2N=C(c2ccccc2F)N1C (stereo not given) | inactive: 3.32%
O=P(Nc1nccs1)(c1ccccc1)c1nc2ccccc2s1 (stereo not given) | inactive: 12.1%
O=P(Nc1nccs1)(Oc1ccccc1)Oc1ccccc1 | inactive: 0.0925%
Nc1ccccc1[As](=O)(O)c1ccccc1 | inactive: 10.4%
O=C(O)COc1ccc([As](=O)(O)O)cc1[N+](=O)[O-] | inactive: 1.87%
CC(C)c1ccc(OP(=O)(Nc2ccccn2)Oc2ccccc2F)cc1 (stereo not given) | inactive: -2.97%
COC(=O)C1(C)COP(=O)(N2CCCCCC2)OC1 (stereo not given) | inactive: 1.34%
ClCCSc1nnc(-c2cccnc2)o1 | inactive: -15.2%
CCN(CC)C(=S)SC(NC=O)C(Cl)(Cl)Cl (stereo not given) | inactive: 38.2%
O=C(OC1CN2CCC1CC2)c1cccc2[nH]cnc12 (stereo not given) | inactive: 9.76%

Compound | inhibition
CC(C)NC(=O)NP(=O)(Oc1ccccc1)Oc1ccccc1 | inactive: -4.81%
O=[N+]([O-])c1cc([N+](=O)[O-])c(-c2ccn[nH]2)s1 | active: 73.2%
O=[As](O)(c1ccc(O)cc1)c1ccccc1O | inactive: -10.7%
C[As](=O)(O)c1cccc(C(=O)O)c1 | inactive: -8.27%
COc1cc(C(=O)NCC2(N3CCOCC3)CCCCC2)ccc1OCC(C)C | inactive: -9.68%
O=[N+]([O-])c1ccc(-c2cc([N+](=O)[O-])c(O)c([N+](=O)[O-])c2)cc1 | inactive: 2.34%
Cc1ccc2nc3c(c(C)c2c1)CC(C(Cl)Cl)S3 (stereo not given) | inactive: -8.44%
Cc1ccc(OP(=O)(Nc2ccc([N+](=O)[O-])cn2)Oc2ccc(C)cc2)cc1 | inactive: 10.6%
COc1ccc(N/C(=N/P(=O)(N2CCOCC2)N2CCOCC2)N2CCOCC2)cc1 | inactive: -0.591%
O=[N+]([O-])c1cc(Oc2ccc([N+](=O)[O-])cc2C(F)(F)F)cc([N+](=O)[O-])c1 | inactive: 22.4%
O=C(OC1CN2CCC1CC2)C12CC3CC(CC(C3)C1)C2 (stereo not given) | inactive: -8.74%
Cc1cc(=O)[nH]c(N[N+](=O)[O-])n1 | inactive: -14.3%
Cc1c2c(nc3ccccc13)SC(C(Cl)Cl)C2 (stereo not given) | inactive: -10.2%
COc1ccc2nc(NP(=O)(c3ccccc3)c3ccccc3)sc2c1 | inactive: 2.98%
COc1cc(I)ccc1[As](=O)(O)O | inactive: -8.32%
O=P1(N(CCCl)CCCl)OCCCN1CCCl (stereo not given) | inactive: 3.29%
O=P1(N(CCCl)CCCl)Nc2ccccc2N1 | inactive: 1.07%
CCOC(=O)c1ccc(NC(=O)C(C)(CCl)SC)cc1 (stereo not given) | inactive: -40.6%
O=C(OC1CN2CCC1CC2)c1cccc([N+](=O)[O-])c1 (stereo not given) | inactive: 7.98%
CCC(C)N(CC(C)C)C(=S)SC(NC(C)=O)C(Cl)(Cl)Cl (stereo not given) | inactive: 26.9%
COP1(=S)c2c(C)nn(CCC#N)c2N=C(c2ccc(F)cc2)N1C (stereo not given) | inactive: 0.336%
O=C(COc1ccccc1)OC1CN2CCC1CC2 (stereo not given) | inactive: 5.61%
O=C(Nc1ccncc1[N+](=O)[O-])c1ccc([N+](=O)[O-])cc1[N+](=O)[O-] | inactive: 18.8%
CCOC(=O)Nc1cccc([As](=O)(O)O)c1 | inactive: 0.996%
O=[N+]([O-])c1ccc(Nc2ccc(Oc3ccc([N+](=O)[O-])cc3[N+](=O)[O-])cc2)c([N+](=O)[O-])c1 | inactive: -4.18%

Compound | inhibition
O=P(Nc1ccccn1)(c1cccc2ccccc12)c1cccc2ccccc12 | inactive: -7.69%
Cc1cc(SC(NC=O)C(Cl)(Cl)Cl)ncn1 (stereo not given) | inactive: -5.16%
CC1CCNP(=O)(N(CCCl)CCCl)O1 (stereo not given) | inactive: 7.74%
CCOC(=O)Nc1ccc([As](=O)(O)O)c(O)c1 | inactive: 2.91%
CCCCOc1ccc(C(=O)NCC2(N3CCCCC3)CCCCC2)cc1OC | inactive: -10.8%
Cc1cc(SC(NC(=O)c2ccccc2)C(Cl)(Cl)Cl)nc(C(C)C)n1 (stereo not given) | inactive: 6.18%
CC(C)(C)C(=O)NC(Sc1ccncn1)C(Cl)(Cl)Cl (stereo not given) | inactive: -6.68%
O=[N+]([O-])c1ncn(CCn2ncnc2[N+](=O)[O-])n1 | inactive: -1.7%
O=[N+]([O-])c1cccc(NC2=NCC(CBr)S2)c1 (stereo not given) | inactive: -2.69%
COC(=O)C1(C)COP(=O)(Nc2ccccc2)OC1 (stereo not given) | inactive: 0.229%
O=C(O)CNc1ccc([As](=O)(O)O)cc1 | inactive: -7.17%
O=P1(N(CCCl)CCCl)OCCCS1 (stereo not given) | inactive: -4.01%
O=C(Nc1cc([As](=O)(O)O)ccc1O)c1ccccc1 | inactive: 4.87%
Nc1ccc([As](=O)(O)c2ccc(N)cc2)cc1 | inactive: 10.1%
C[N+]1=C2C=CC=CC=C2SC12C([N+](=O)[O-])=CC([N+](=O)[O-])=C[C-]2[N+](=O)[O-] (stereo not given) | active: 67%
CCN(/C(=N/P(=O)(N1CCOCC1)N1CCOCC1)N1CCOCC1)c1ccc(OC)cc1 | inactive: -4.43%
CC(C)=N/N=C(\N)N[N+](=O)[O-] | inactive: 3%
CN(C)C(=O)OCCc1n(C)cc[n+]1C | inactive: -11.9%
CC1CCN(C(=O)Oc2c(Cl)cc(Cl)c3cccnc23)CC1 | inactive: -4.64%
COc1ccc(C2=NCC(CBr)S2)cc1 (stereo not given) | inactive: -13.4%
O=[N+]([O-])c1cccc2n[nH]nc12 | inactive: -2.69%
CC(=O)N1C2C3N(C(C)=O)C1C1N(C(C)=O)C(C(N1C(C)=O)N3C(C)=O)N2C(C)=O | inactive: 5.14%
Cc1ccc(NP(=O)(Oc2ccccc2)Oc2ccccc2)nc1 | inactive: -1.95%
CCc1nc2c(n1)c1c(non1O)c1c2no[n+]1[O-] | active: 62.6%
O=[N+]([O-])c1cc([N+](=O)[O-])c(CCNc2ccccc2)c([N+](=O)[O-])c1 | inactive: 36.3%
